Experimental data published in patent US20260382586A1, “DUAL INHIBITORS OF SIGMA-1 RECEPTOR AND SOLUBLE EPOXIDE HYDROLASE AND THEIR USE IN THE TREATMENT OF PAIN” (published 2026).

By UniProt entry, the sequences of proteins in these tests, tags left out. Where a name states a change or a piece, a line headed by the entry shows the natural chain unless it says otherwise.
UniProt Q99720, whole entry: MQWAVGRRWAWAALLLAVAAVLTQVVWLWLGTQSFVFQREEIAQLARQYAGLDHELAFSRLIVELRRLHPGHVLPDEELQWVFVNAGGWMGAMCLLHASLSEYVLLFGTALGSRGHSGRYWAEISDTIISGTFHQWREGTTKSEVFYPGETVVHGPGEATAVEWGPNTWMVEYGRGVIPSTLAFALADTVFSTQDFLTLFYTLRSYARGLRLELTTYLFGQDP
UniProt Q9R0C9, whole entry: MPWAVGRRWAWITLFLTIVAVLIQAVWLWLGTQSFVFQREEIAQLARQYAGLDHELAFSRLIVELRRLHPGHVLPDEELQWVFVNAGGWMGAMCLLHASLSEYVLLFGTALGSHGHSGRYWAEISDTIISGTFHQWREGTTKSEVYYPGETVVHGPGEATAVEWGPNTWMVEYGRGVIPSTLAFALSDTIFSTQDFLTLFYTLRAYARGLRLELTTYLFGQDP
UniProt P34913, whole entry: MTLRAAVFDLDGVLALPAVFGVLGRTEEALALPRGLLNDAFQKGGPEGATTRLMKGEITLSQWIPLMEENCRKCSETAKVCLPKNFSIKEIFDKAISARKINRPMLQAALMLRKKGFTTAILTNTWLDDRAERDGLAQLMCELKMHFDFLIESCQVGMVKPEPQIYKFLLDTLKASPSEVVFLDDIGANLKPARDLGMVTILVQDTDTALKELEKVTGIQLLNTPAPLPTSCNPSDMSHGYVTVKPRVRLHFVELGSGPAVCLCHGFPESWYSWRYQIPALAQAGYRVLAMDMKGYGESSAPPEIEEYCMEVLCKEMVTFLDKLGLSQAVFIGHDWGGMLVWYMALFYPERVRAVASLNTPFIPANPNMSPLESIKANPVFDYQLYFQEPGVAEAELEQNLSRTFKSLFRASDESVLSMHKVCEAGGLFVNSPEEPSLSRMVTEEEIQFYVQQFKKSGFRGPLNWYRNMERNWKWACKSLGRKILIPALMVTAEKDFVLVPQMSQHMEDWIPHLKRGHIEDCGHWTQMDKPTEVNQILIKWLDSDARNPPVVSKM

Assays:
[1] = molecular target: human S1R (Homo sapiens, UniProt Q99720); experiment: Binding to S1R ([3H]-(+)-pentazocine, transfected HEK-293 membranes); settings: read-out: Binding S1R (Ki); human S1R, [3H]-(+)-pentazocine 5 nM, 37 °C, 120 min, pH 8
[2] = Capsaicin-induced tactile (mechanical) allodynia in mice
[3] = molecular target: S1R (Rattus norvegicus, UniProt Q9R0C9); experiment: Phenytoin (DPH) modulation of [3H]-(+)-pentazocine binding: agonist/antagonist character on S1R
[4] = molecular target: recombinant human sEH (Homo sapiens, UniProt P34913); experiment: Inhibition of sEH (fluorescent assay, CMNPC substrate); settings: read-out: Inhibition sEH (IC50); human sEH, pH 7.4, 30 °C, [S]=5 μM
[5] = Postoperative pain (laparotomy) model in mice, von Frey threshold; settings: 10-40 mg/kg s.c., 60, 120 and 180 min after injection

SMILES	Ki [1]	IC50 [4]	other results
N#Cc1ccc(CNC(=O)C2CCN(Cc3ccccc3)CC2)c(C(F)(F)F)c1	50 to 150 nM	10 to 50 nM	antiallodynic effect ([2]; 2.5 mg/kg s.c., capsaicin 1 μg i.pl., 45 min before evaluation): 75.49%; paw withdrawal latency ([2]; 0.625-10 mg/kg s.c., capsaicin 1 μg i.pl.): dose-dependently increased the paw withdrawal latency in mice up to the value of control nonsensitized mice; antiallodynic effect in capsaicin-induced mechanical hypersensitivity (in words) ([2]; FIGS. 1 and 2): marked antiallodynic effect; ratio of Ki without phenytoin/with phenytoin [3]: 0.8; functional character on S1R ([3]; 1 mM phenytoin (DPH)): acts as an antagonist for the S1R; sensory (von Frey) threshold / antiallodynic effect after laparotomy [5]: dose-dependently increased the sensory threshold, in particular at 120 min after drug administration; sensory (von Frey) threshold / antiallodynic effect after laparotomy ([5]; listed as Ex. 2): prominent relief of sensory hypersensitivity in laparotomized mice, in particular at 120 min after drug administration; sensory (von Frey) threshold / antiallodynic effect after laparotomy ([5]; listed as compound of the invention): marked antiallodynic effect
C=CCN1CCC2(C)c3cc(O)ccc3CC1C2C (centres unmarked)	–	–	ratio of Ki without phenytoin/with phenytoin [3]: 6.0
O=C(NCc1ccc(Cl)cc1Cl)C1CCN(Cc2cccc(F)c2)CC1	50 to 150 nM	< 10 nM	–
O=C(NCc1ccc(Br)cc1F)C1CCN(Cc2ccccc2)CC1	50 to 150 nM	50 to 100 nM	–
COc1ccc(CN2CCC(C(=O)NCc3ccc(Br)cc3OC(F)(F)F)CC2)cc1	< 50 nM	< 10 nM	–
COc1ccc(CNC(=O)C2CCN(Cc3ccc(F)cc3)CC2)c(OC(F)(F)F)c1	50 to 150 nM	< 10 nM	–
N#Cc1ccc(CNC(=O)C2CCN(Cc3ccc(F)cc3)CC2)c(Cl)c1	< 50 nM	10 to 50 nM	–
O=C(NCc1ccc(Br)cc1OC(F)(F)F)C1CCN(Cc2cccc(F)c2)CC1	< 50 nM	< 10 nM	–
N#Cc1ccc(CNC(=O)C2CCN(CCc3ccccc3)CC2)c(Cl)c1	< 50 nM	50 to 100 nM	–
N#Cc1ccc(CNC(=O)C2CCN(Cc3ccccc3)CC2)c(Cl)c1	50 to 150 nM	< 10 nM	–
N#Cc1ccc(CNC(=O)C2CCN(Cc3cccc(F)c3)CC2)c(C(F)(F)F)c1	150 to 400 nM	< 10 nM	–
COc1ccc(CN2CCC(C(=O)NCc3ccc(F)cc3C(F)(F)F)CC2)cc1	< 50 nM	10 to 50 nM	–
COc1ccc(CN2CCC(C(=O)NCc3ccc(OC)cc3OC(F)(F)F)CC2)cc1	50 to 150 nM	< 10 nM	–
O=C(NCc1ccc(Cl)cc1Cl)C1CCN(Cc2ccc(Cl)cc2)CC1	< 50 nM	10 to 50 nM	–
N#Cc1ccc(CNC(=O)C2CCN(Cc3ccc(F)cc3)CC2)c(C(F)(F)F)c1	50 to 150 nM	< 10 nM	–
O=C(NCc1ccc(Cl)cc1Cl)C1CCN(Cc2ccc(C(F)(F)F)cc2)CC1	50 to 150 nM	< 10 nM	–
N#Cc1ccc(CNC(=O)C2CCN(Cc3ccsc3)CC2)c(Cl)c1	< 50 nM	10 to 50 nM	–
O=C(NCc1ccc(Cl)cc1Cl)C1CCN(Cc2ccc(I)cc2)CC1	< 50 nM	< 10 nM	–
N#Cc1ccc(CNC(=O)C2CCN(Cc3ccc(F)c(F)c3)CC2)c(C(F)(F)F)c1	< 50 nM	< 10 nM	–
COc1ccc(CN2CCC(C(=O)NCc3ccc(Br)cc3C(F)(F)F)CC2)cc1	< 50 nM	< 10 nM	–
